Values quoted from earlier work in patent publication US10010525B2, “Methods of inducing anesthesia” (The Regents of the University of California, priority 2012, dated 2018).

Target: NMDA receptor
Conditions: read-out: IC50, inhibition of NMDA receptor currents; cited from earlier work

For CNC1(c2ccccc2Cl)CCCCC1=O (stereo not shown) [Ketamine], the IC50 is given as 14 µM.
